Earlier results, collected in patent publication US9872875B2, “Component and method for treating viral disease” (Institut Pasteur of Shanghai, Chinese Academy of Sciences, priority 2012, dated 2018).

Molecular target: T1, P2X4 receptor (Homo sapiens, UniProt Q99571)
T1 sequence (Q99571 1-388): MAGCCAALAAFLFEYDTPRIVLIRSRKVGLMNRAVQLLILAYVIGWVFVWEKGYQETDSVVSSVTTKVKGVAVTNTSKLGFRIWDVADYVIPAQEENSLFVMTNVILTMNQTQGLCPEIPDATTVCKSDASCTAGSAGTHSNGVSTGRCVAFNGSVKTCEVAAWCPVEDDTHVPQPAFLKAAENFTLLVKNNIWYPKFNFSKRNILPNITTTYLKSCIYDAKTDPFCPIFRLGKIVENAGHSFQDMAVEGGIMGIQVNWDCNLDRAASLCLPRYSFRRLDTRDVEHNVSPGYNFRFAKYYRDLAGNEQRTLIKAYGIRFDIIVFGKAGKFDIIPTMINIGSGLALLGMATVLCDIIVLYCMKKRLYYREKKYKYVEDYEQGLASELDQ
Details: Table 8, antagonists; cited from earlier work

For trinitrophenol-ATP [TNP-ATP], the “P2X receptors 4” value is listed as “+ (+: inhibitory concentration >300 nM)”.
